Only a part is listed here, and it is no random draw. Results filed as inconclusive are left out. Activity calls are given as the source filed them. Unless noted, the call rests on the fitted dose curve.
Assays:
[1] = Nuclear factor erythroid 2-related factor 2/antioxidant responsive element (Nrf2/ARE) small molecule agonists: qHTS cell viability counter screen in human keratinocytes (AID 1919968; active means well fitted curve in the direction sought with a large enough effect in the repeat runs; an effect the other way counts as inactive or inconclusive; further: nearly all actives have a fitted effect of over 55% in size); conditions: KeratinoSens HaCaT ARE cells viability, CellTiter-Fluor, 24 h; at 92.4 µM (top of the series) unless noted
In short: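 HaCaT ARE reporter line, 1,500 cells/well; 5 h settle, 37 C/5% CO2; cpd in DMSO pinned; 23 h exposure; CellTiter-Fluor, 1 h; fluorescence.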

Protein sequences, listed by entry. Tags and fused reporters are not part of them.
UniProt P30968, whole entry: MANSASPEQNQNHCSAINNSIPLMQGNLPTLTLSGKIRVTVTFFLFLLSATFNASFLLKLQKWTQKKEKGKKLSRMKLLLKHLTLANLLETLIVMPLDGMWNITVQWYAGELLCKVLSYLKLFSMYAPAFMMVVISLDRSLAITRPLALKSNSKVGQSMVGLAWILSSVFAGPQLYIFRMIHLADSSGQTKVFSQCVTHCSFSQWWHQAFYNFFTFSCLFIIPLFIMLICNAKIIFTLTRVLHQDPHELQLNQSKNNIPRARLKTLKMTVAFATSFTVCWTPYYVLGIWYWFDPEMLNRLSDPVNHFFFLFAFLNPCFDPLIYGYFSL
UniProt Q969F8, whole entry: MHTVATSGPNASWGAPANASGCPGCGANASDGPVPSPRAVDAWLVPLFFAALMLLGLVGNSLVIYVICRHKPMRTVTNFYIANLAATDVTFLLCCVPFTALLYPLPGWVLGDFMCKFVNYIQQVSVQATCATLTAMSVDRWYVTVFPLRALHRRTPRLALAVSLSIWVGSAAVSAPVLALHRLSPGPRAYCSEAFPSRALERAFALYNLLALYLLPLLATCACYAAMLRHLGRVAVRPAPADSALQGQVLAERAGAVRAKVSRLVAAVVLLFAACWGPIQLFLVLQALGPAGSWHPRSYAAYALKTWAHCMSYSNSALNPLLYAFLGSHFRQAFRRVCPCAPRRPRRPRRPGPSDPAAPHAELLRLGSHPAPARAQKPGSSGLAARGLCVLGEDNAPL
UniProt P28223, whole entry: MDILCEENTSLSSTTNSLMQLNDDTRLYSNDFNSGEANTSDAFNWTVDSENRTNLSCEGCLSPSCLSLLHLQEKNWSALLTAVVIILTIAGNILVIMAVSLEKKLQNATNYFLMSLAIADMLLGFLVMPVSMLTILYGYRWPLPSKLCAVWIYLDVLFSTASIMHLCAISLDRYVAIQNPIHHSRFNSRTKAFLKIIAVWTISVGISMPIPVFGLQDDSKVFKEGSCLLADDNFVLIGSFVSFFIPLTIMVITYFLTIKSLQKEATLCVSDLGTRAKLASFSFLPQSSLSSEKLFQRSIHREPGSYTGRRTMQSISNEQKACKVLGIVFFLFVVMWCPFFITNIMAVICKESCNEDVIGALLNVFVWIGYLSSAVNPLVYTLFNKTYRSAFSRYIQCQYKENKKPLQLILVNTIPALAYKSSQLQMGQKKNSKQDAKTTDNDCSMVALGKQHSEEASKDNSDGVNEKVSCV
UniProt P11229, whole entry: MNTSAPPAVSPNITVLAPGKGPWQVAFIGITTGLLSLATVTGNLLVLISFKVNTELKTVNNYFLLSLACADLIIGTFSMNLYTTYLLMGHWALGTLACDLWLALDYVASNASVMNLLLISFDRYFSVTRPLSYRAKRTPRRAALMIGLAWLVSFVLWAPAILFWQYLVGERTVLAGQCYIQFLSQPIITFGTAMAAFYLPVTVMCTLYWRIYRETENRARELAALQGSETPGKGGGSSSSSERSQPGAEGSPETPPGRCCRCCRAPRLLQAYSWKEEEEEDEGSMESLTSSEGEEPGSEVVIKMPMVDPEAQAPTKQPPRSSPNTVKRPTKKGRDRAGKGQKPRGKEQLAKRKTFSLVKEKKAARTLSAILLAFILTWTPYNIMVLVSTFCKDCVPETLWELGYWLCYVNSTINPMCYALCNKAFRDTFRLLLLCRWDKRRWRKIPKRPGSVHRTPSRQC
UniProt P07550, whole entry: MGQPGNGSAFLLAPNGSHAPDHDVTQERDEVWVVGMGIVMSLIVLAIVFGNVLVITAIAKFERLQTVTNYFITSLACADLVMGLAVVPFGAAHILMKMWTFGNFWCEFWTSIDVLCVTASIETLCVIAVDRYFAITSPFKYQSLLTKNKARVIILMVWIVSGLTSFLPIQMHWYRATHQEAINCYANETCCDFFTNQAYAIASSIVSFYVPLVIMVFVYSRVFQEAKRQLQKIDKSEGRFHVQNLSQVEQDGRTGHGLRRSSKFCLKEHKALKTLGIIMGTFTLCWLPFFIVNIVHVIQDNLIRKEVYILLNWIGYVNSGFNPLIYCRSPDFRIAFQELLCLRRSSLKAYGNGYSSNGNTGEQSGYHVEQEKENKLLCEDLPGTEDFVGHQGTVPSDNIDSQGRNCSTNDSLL
UniProt P14416, whole entry: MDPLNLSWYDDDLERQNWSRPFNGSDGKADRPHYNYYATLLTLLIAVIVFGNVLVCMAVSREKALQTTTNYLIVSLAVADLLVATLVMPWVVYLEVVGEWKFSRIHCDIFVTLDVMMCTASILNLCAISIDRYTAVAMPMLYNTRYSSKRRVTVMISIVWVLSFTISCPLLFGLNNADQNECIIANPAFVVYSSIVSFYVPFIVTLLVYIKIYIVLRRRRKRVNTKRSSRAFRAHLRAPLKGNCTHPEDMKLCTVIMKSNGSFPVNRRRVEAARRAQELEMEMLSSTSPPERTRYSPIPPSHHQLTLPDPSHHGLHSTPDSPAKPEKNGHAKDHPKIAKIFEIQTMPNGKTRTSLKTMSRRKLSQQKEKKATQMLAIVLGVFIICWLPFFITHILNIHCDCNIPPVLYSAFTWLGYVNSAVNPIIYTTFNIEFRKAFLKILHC

[2] = Nuclear factor erythroid 2-related factor 2/antioxidant responsive element (Nrf2/ARE) small molecule agonists: luciferase reporter gene qHTS assay in human keratinocytes (AID 1919969); conditions: KeratinoSens HaCaT ARE-luciferase, luminescence, 24 h; at 92.4 µM (top of the series) unless noted; further: nearly all actives have a fitted effect of over 35% in size
From the text: National Center for Advancing Translational Sciences [NCATS]
Division of Preclinical Innovation [DPI]
U.S. Environmental Protection Agency [EPA]
National Institutes of Environmental Health Sciences [NIEHS]
National Toxicology Program [NTP]
U.S. Food and Drug Administration [FDA]
Oxidative stress has been implicated in the pathogenesis of a variety of diseases ranging from cancer to neurodegeneration. The antioxidant response element (ARE) signaling pathway plays an important role in the amelioration of oxidative stress. The KeratinoSens (Givaudan, Switzerland) is an in vitro test method which quantifies luciferase induction as a measure of activation of Keap1-Nrf2-antioxidationt/electrophile response element (ARE) dependant pathway in HaCaT human keratinocytes stably transfected with a selectable plasmid. The KeratinoSens assay is a cell-based assay with a reporter cell line to detect potential skin sensitizers by their ability to induce the Nrf2/ARE-response. The activation of the report gene under culture conditions can be detected by ONE-Glo Luciferase Assay System (Promega, Madison, WI). This cell line has been used to screen the Tox21 10K compound library to identify agonists that induce oxidative stress. The cytotoxicity of the Tox21 compound library against the KS-ARE cell line was tested in parallel by measuring the cell viability using CellTiter- Fluor assay system (Promega, Madison, WI) in the same wells.
HaCaT derived cell line KeratinoSens were dispensed at 1,500 cells/5uL/well in 1536-well white wall/solid bottom plates using a Multidrop Combi (ThermoFisher Scientific, Waltham, MA) dispenser. After the assay plates were incubated at 37 C/5% CO2 for 5 h, 23 nL of compounds dissolved in DMSO, positive controls or DMSO only was transferred to the assay plate by a pintool workstation (Kalypsys, San Diego, CA). The plates were incubated at 37 C/5% CO2 for 23 h, followed by addition of 1uL/well of CellTiter-Fluor reagent into the assay plates using a Flying Reagent Dispenser (Aurora Discovery, San Diego, CA) for cell viability readout that measures cytotoxicity. After 1 h incubation at 37 C/5% CO2 the fluorescence intensity was measured using a ViewLux (PerkinElmer, Shelton, CT) plate reader. Then 4uL/well of One-Glo were added using a Flying Reagent Dispenser. After the plates were incubated at room temperature for 30 min, the luminescence intensity in the assay plates was measured using ViewLux plate reader.

[3] = target: Gonadotropin-releasing hormone receptor (Homo sapiens) (UniProt P30968); test: Human gonadotropin-releasing hormone receptor (GnRHR) small molecule agonists, calcium flux assay in GnRHR-HEK293 cells (AID 1920063); conditions: calcium flux fluorescence, agonist mode, stronger effect = higher value; at 57.6 µM (top of the series) unless noted; further: nearly all actives have a fitted effect of over 35% in size
In short: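 GnRHR-HEK293, 1500 cells/well, 18 h 37 C/5% CO2; Ca dye 1 h 37 C; cpd pinned (DMSO), agonist mode; kinetic FL 480/540, 3 min, 1 s reads; 15 conc, n=3.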

[4] = target: KiSS-1 receptor (Homo sapiens) (UniProt Q969F8); test: Human kisspeptin (KISS1R) small molecule agonists, calcium flux assay in KISS1R-HEK293 cells (AID 1920064; active means well fitted curve in the direction sought with a large enough effect in the repeat runs; an effect the other way counts as inactive or inconclusive); conditions: KISS1R-HEK293, calcium flux fluorescence, agonist; at 76.8 µM (top of the series) unless noted
In short: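 Stable human KISS1R HEK293 line; 18 h plating, 37 C/5% CO2; calcium dye 1 h 37 C; compound pin transfer; kinetic fluorescence Ex/Em 480/540, 3 min.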

[5] = G protein-coupled receptor (GPCR) small molecule agonists, calcium flux assay: HEK293 wild type cell line counter screen (AID 1920065); conditions: HEK293 WT calcium flux, fluorescence, agonist mode; at 57.6 µM (top of the series) unless noted
In short: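 Kinetic fluorescence at Ex/Em 480/540, recorded every second over 3 min, served as the read-out after compound addition. Each compound was tested at 15 concentrations in triplicate on cells pre-loaded with calcium dye for 1 h.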

[6] = p53 small molecule agonists, cell-based qHTS assay with human liver microsomes (AID 1963577); conditions: HCT-116 p53RE-bla with human liver microsomes, ratio, 16 h; at 66 µM (top of the series) unless noted;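 further: p53 response element beta-lactamase reporter cells with liver microsomes plus NADPH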
In short: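 16 h, 37 C exposure of p53RE-bla cells to compounds with human liver microsomes and NADPH (0.5 mg/mL final each); detection via LiveBLAzer mixture, 2 h dark at room temperature.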

[7] = p53 small molecule agonists, cell-based qHTS assay with rat liver microsomes (AID 1963578); conditions: HCT-116 p53RE-bla, beta-lactamase ratio, 16 h; at 66 µM (top of the series) unless noted
In short: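 With rat liver microsomes and NADPH present (0.5 mg/mL final each), p53RE-bla cells are treated with compound for 16 h at 37 C. LiveBLAzer detection mixture is then applied for 2 h at room temperature in the dark.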

[8] = p53 small molecule agonists, cell-based qHTS assay with human liver microsomes: qHTS cell viability counter screen (AID 1963579); conditions: p53RE-bla HCT-116 viability, ATP luminescence, 16 h, HLM; at 66 µM (top of the series) unless noted; further: nearly all actives have a fitted effect of over 45% in size
In short: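 In this multiplexed counter screen, the reporter plates were subsequently treated with CellTiter-Glo so that cell viability, reflected by luminescence, could be recorded for p53RE-bla cells dosed 16 h with compounds under microsomal activation (HLM and NADPH).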

[9] = p53 small molecule agonists, cell-based qHTS assay with rat liver microsomes: qHTS cell viability counter screen (AID 1963580); conditions: p53RE-bla HCT-116 + rat microsomes, ATP viability, 16 h; at 66 µM (top of the series) unless noted; further: nearly all actives have a fitted effect of over 45% in size
In short: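 HCT-116 p53RE-bla, 4,000 cells/well, 5 h pre-incubation; cpd + rat liver microsomes 0.5 mg/mL + NADPH 0.5 mg/mL (final); 16 h, 37 C; CellTiter-Glo, 30 min RT; luminescence.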

[10] = p53 small molecule agonists, cell-based qHTS assay: qHTS cell viability counter screen (AID 1963581); conditions: p53RE-bla HCT-116 viability, ATP luminescence, 16 h; at 66 µM (top of the series) unless noted; further: nearly all actives have a fitted effect of over 45% in size
In short: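 HCT-116 p53RE-bla cells, 4,000/well, plated 5 h before compound pin transfer; 16 h at 37 C; bla substrate 2 h RT; then CellTiter-Glo, 30 min RT, luminescence.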

[11] = p53 small molecule agonists, cell-based qHTS assay (AID 1963582; active means well fitted activation curve with a large enough effect in the signal ratio in the repeat runs, not every such curve was filed as active; the % refers to the signal ratio); conditions: HCT-116 p53RE-bla reporter, beta-lactamase FRET ratio, 16 h; at 66 µM (top of the series) unless noted
In short: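 Reporter line: p53RE-bla. Pre-incubation 5 h, 37 C, 5% CO2; compound (DMSO, pin tool) 16 h, 37 C; B/G FRET substrate 2 h RT; fluorescence intensity read.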

[12] = target: 5-hydroxytryptamine receptor 2A (Homo sapiens) (UniProt P28223); test: 5-hydroxytryptamine receptor 2A (HTR2A) small molecule antagonists, cell-based qHTS assay (AID 1963586); conditions: HTR2A-CHO cells, DOI-induced calcium flux, fluorescence; at 61.5 µM (top of the series) unless noted; further: nearly all actives have a fitted effect of over 45% in size
In short: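 Antagonist-mode intracellular calcium assay: DOI (4 nM) added after 5 min compound pre-incubation at room temperature to dye-loaded HTR2A-CHO cells. Fluorescence followed for 3 min, sampled every second.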

[13] = target: 5-hydroxytryptamine receptor 2A (Homo sapiens) (UniProt P28223); test: 5-hydroxytryptamine receptor 2A (HTR2A) small molecule agonists, cell-based qHTS assay (AID 1963587); conditions: HTR2A-CHO cells, calcium flux fluorescence, agonist mode; at 76.8 µM (top of the series) unless noted; further: nearly all actives have a fitted effect of over 30% in size
In short: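 Kinetic calcium-flux fluorescence (2 min, 1 sec intervals) after compound addition in agonist mode. HTR2A-CHO cells were cultured 18 h, then dye-loaded 1 h at 37 C.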

[14] = target: Muscarinic acetylcholine receptor M1 (Homo sapiens) (UniProt P11229); test: Cholinergic receptor muscarinic 1 (CHRM1) small molecule antagonists, cell-based qHTS assay (AID 1963588); conditions: CHRM1-CHO antagonist mode, calcium flux fluorescence; at 61.5 µM (top of the series) unless noted; further: nearly all actives have a fitted effect of over 40% in size
In short: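 CHRM1-CHO calcium-flux assay, antagonist mode. Cells were seeded 18 h, dye-loaded 1 h at 37 C and given compound for 5 min at RT, then acetylcholine was added at 50nM. FDSS fluorescence was read 3 min; 15 concentrations, three runs.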

[15] = target: Muscarinic acetylcholine receptor M1 (Homo sapiens) (UniProt P11229); test: Cholinergic receptor muscarinic 1 (CHRM1) small molecule agonists, cell-based qHTS assay (AID 1963589); conditions: CHRM1-CHO cells, agonist mode, calcium flux fluorescence; at 76.8 µM (top of the series) unless noted; further: nearly all actives have a fitted effect of over 35% in size
In short: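 Human M1 in stable CHO line; 18 h plating, 1 h dye load 37 C; cpd added (agonist mode); Ca2+ fluorescence kinetic read, 1 s intervals; 15 conc, 3 runs.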

[16] = cAMP Responsive Elements (CRE) small molecule agonists, cell-based qHTS assay (AID 1963590); conditions: CRE-bla HEK293T, beta-lactamase FRET ratio, 3 h; at 92.4 µM (top of the series) unless noted
In short: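 HEK 293T CRE-bla, 2,000 cells/well, 18 h preincubation 37 C/5% CO2; cpds (DMSO) pinned, 3 h; LiveBLAzer B/G FRET substrate, 2 h RT.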

[17] = cAMP Responsive Elements (CRE) small molecule antagonists, cell-based qHTS assay (AID 1963591; active means well fitted inhibition curve with a large enough effect in the signal ratio in the repeat runs, not every such curve was filed as active; the % refers to the signal ratio); conditions: CRE-bla HEK293T, beta-lactamase FRET ratio; at 92.4 µM (top of the series) unless noted
In short: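 Beta-lactamase reporter read by FRET substrate (LiveBLAzer B/G) after 2 h at room temperature. CRE-bla HEK293T cells had received compound plus 0.25 uM (final) NKH477 for 3 h at 37 °C.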

[18] = target: Beta-2 adrenergic receptor (Homo sapiens) (UniProt P07550); test: Adrenergic beta2 receptor (ADRB2) small molecule antagonists, cell-based qHTS assay (AID 1963592); conditions: CHO-ADRB2 cells, isoproterenol-stimulated cAMP HTRF ratio, 0.5 h; at 92.4 µM (top of the series) unless noted; further: nearly all actives have a fitted effect of over 50% in size
In short: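 Cells (CHO, stable ADRB2 overexpression) incubated 18-20hr at 37C; compounds added from DMSO; agonist mix (1nM isoproterenol, 100uM IBMX, 25uM Ro-20-1724) added; 0.5hr RT; d2-cAMP and anti-cAMP-cryptate added; 1hr RT; 665/615 nm read.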

[19] = target: D(2) dopamine receptor (Homo sapiens) (UniProt P14416); test: Dopamine D2 receptor (DRD2) small molecule agonists, cell-based qHTS assay (AID 1963594); conditions: HEK293-DRD2 cAMP HTRF, agonist mode, 30 min; at 92.4 µM (top of the series) unless noted; further: nearly all actives have a fitted effect of over 35% in size
In short: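 cAMP accumulation in DRD2-HEK293 cells measured by HTRF after 1 h detection; compounds added 10 min before NKH477 (200nM […]) forskolin-analogue stimulation, 30 min at room temperature, with Ro20-1724 present at 0.1 mM final.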

[20] = target: D(2) dopamine receptor (Homo sapiens) (UniProt P14416); test: Dopamine D2 receptor (DRD2) small molecule antagonists, cell-based qHTS assay (AID 1963595; active means well fitted inhibition curve with a large enough effect in the signal ratio in the repeat runs, with a control signal flat; the % refers to the signal ratio); conditions: HEK293-DRD2 cAMP HTRF antagonist mode; at 92.4 µM (top of the series) unless noted
In short: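 HTRF cAMP read-out at 665 and 620 nm emission (340 nm excitation). Antagonist mode: compounds were tested against 12 nM quinpirole in DRD2-HEK293 cells, with 200 nM NKH477 raising cAMP and 0.1 mM Ro20-1724 blocking its breakdown.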
On the % scale 0 is the no-effect control and ±100 the full control effect.

ClCCNCCCl
inactive: activity change, negative = cytotoxicity [1] -3.41% | activity, positive = activation [2] -0.114% | activity change [3] -0.162% | activation [4] 1.11% | activation [5] -0.35% | activation [6] 0.151% | activation [7] 0.588% | activity change, negative = cytotoxicity [8] 1.9% | activity change, negative = cytotoxicity [9] -7.96% | activity change, negative = cytotoxicity [10] -6.44% | activation [11] 3.43% | activity, negative = inhibition [12] -2.81% | activation [13] 0.221% | activity, negative = inhibition [14] 23.7% | activation [15] 0.043% | activation [16] 0.0083% | activity change, negative = inhibition [17] -4.95% | activity change, negative = inhibition [18] 0.305% | activation [19] 0.155% | activity change, negative = inhibition [20] 0.378%

CCC(=O)N(c1ccccc1)C1CCNCC1
inactive: activity change, negative = cytotoxicity [1] 0.818% [at 42.5 µM] | activity, positive = activation [2] -0.381% [at 42.5 µM] | activity change [3] 0.696% [at 26.4 µM] | activation [4] -0.982% [at 35.3 µM] | activation [5] -0.0116% [at 26.5 µM] | activation [6] -0.506% [at 30.3 µM] | activation [7] -0.889% [at 30.3 µM] | activity change, negative = cytotoxicity [8] -0.0139% [at 30.3 µM] | activity change, negative = cytotoxicity [9] 1.41% [at 30.3 µM] | activity change, negative = cytotoxicity [10] -8.35% [at 30.3 µM] | activation [11] -0.21% [at 30.3 µM] | activity, negative = inhibition [12] -4.29% [at 28.5 µM] | activation [13] -13% [at 35.6 µM] | activation [15] -0.507% [at 35.3 µM] | activation [16] -0.618% [at 42.5 µM] | activity change, negative = inhibition [17] 3% [at 42.4 µM] | activity change, negative = inhibition [18] -4.61% [at 42.5 µM] | activation [19] -0.98% [at 42.5 µM] | activity change, negative = inhibition [20] 3.17% [at 42.5 µM]

— PubChem BioAssay (Tox21)
